Read-outs that look alike come from different tables or passages of the source.
Columns and labels:
Type in all cases: cell-based
[1] = molecular target: T1, wild-type Androgen Receptor (AR-wt) (Homo sapiens, UniProt P10275); experiment: LNCaP-AR-wt AG reporter assay (ARE firefly luciferase, agonist mode); settings: for Emax: read-out: LNCaP-AR-wt AG MAX % Stim
T1 construct: expressed in transfected cells; host or cells: LNCaP (LNCaP AR (cs))

By UniProt entry, the sequences of proteins in these tests, tags left out. Residues count along the entry.
UniProt P10275, 560-920 limits assumed: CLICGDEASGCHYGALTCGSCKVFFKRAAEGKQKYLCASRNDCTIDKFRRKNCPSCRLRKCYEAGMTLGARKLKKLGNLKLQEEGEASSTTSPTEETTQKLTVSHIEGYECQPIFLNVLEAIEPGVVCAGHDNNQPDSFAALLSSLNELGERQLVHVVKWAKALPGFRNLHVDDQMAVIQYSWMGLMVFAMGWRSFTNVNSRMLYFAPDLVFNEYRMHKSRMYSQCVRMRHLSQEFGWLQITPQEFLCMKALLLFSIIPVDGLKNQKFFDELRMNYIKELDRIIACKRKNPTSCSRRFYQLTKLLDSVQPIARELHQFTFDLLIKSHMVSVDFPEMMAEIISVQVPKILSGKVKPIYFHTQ
UniProt P10275, whole entry T878A: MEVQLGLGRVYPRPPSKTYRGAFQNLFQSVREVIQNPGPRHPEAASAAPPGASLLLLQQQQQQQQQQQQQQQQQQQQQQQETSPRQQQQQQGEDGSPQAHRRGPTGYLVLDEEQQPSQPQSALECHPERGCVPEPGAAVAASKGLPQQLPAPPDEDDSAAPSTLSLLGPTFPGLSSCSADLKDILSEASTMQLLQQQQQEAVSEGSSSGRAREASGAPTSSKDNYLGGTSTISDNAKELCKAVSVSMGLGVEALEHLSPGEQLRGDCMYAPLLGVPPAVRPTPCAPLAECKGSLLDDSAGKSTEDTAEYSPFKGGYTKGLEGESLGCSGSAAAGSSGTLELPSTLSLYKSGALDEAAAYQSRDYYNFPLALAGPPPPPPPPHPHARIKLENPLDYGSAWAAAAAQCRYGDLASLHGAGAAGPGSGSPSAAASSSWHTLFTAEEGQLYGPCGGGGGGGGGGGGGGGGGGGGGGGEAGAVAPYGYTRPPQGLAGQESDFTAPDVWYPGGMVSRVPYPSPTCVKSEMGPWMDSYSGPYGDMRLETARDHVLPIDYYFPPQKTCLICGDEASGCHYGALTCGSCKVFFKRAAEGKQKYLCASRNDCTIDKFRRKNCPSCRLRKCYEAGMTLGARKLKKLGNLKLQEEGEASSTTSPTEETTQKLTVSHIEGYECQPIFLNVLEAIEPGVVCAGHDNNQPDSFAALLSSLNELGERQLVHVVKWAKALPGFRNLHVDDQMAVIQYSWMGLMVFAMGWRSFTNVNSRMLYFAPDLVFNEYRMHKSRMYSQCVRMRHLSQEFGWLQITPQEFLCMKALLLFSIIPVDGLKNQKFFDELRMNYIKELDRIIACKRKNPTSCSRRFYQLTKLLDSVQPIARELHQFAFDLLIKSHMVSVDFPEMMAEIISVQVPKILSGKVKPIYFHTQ
UniProt P10275, whole entry W742C: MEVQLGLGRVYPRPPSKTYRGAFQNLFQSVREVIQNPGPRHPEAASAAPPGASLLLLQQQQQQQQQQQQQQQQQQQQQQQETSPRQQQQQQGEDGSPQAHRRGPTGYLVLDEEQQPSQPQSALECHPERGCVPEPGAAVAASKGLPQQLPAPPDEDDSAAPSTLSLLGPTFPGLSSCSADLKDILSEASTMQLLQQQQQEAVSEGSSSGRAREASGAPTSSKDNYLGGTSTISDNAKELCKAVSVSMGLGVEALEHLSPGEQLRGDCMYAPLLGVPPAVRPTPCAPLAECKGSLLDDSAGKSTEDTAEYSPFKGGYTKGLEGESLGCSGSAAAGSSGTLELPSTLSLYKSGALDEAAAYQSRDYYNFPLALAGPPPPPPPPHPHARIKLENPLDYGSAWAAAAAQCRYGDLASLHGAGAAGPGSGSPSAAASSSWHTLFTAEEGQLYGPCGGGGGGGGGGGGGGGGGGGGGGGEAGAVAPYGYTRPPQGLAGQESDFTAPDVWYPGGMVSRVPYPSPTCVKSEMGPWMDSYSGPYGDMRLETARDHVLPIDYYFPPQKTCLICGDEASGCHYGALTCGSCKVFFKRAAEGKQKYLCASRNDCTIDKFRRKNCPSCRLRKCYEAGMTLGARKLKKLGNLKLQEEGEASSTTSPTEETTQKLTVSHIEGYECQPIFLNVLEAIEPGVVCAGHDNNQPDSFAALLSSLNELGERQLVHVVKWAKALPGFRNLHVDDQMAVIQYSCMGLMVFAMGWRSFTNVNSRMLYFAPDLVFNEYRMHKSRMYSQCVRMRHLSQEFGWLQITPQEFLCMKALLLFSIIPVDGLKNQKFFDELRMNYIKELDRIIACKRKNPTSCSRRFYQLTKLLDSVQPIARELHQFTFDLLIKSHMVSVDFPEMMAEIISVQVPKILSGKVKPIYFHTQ
UniProt P10275, whole entry H875Y: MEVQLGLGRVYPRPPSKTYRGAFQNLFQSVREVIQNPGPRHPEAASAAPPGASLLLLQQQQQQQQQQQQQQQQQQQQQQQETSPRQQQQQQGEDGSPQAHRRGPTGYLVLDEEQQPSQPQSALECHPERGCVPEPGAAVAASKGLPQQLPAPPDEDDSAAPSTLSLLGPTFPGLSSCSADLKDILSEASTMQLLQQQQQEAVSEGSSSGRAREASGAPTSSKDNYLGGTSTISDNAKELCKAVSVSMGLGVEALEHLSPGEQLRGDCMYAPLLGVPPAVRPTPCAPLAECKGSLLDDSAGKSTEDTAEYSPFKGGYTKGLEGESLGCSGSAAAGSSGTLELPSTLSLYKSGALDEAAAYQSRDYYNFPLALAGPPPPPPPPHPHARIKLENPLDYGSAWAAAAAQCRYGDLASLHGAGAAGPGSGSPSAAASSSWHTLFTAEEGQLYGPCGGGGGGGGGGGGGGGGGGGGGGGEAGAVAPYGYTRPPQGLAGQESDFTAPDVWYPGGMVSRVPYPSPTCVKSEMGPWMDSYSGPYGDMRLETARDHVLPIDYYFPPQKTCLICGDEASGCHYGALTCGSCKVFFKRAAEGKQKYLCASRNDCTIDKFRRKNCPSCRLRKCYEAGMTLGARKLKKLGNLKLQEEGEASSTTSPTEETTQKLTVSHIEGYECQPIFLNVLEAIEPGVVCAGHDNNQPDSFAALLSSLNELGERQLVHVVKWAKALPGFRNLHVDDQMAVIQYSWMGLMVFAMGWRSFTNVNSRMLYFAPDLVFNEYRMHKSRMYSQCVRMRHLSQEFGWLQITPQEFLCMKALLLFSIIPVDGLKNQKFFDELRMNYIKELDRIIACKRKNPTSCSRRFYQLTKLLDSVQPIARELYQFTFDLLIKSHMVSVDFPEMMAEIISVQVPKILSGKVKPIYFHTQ
UniProt P10275, whole entry L702H: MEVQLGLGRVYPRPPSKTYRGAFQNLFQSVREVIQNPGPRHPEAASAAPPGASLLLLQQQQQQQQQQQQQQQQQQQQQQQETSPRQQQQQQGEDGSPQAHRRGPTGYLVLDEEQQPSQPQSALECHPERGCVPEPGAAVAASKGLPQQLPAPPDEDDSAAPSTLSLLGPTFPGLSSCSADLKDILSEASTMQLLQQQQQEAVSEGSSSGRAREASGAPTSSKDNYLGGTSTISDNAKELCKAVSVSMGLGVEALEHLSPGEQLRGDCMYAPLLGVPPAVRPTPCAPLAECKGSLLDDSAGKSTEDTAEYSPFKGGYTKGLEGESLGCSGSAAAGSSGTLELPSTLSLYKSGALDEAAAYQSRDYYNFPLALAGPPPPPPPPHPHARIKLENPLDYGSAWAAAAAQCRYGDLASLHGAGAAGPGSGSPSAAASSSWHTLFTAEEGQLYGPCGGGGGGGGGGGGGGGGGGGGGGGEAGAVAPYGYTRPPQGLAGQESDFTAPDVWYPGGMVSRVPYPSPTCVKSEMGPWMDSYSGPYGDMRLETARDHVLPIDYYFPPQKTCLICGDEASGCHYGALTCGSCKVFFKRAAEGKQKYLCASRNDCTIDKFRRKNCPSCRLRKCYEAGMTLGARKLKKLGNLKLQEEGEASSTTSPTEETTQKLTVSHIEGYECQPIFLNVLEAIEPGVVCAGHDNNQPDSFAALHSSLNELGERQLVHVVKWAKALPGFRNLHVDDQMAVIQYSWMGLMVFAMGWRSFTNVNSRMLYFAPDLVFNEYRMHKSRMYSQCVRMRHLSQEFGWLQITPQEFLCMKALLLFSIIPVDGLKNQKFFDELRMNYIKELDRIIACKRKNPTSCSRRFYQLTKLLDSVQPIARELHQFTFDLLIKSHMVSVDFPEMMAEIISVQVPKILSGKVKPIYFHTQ

[2] = molecular target: T1, wild-type Androgen Receptor (AR-wt); experiment: LNCaP-AR-wt ANT reporter assay (ARE firefly luciferase, antagonist mode); settings: for Emax: read-out: LNCaP-AR-wt ANT MAX % Inh
AR-VP16 = AR-VP16 (Homo sapiens, UniProt P10275); experiment: AR-VP16 DNA binding assay, HepG2
Description: HepG2 cells were maintained in EMEM supplemented with 10% FBS. One day before transfection, the media was changed to EMEM with 10% CSS. […] Cells were then trypsinized, counted and resuspended at 500,000 cells/mL. For agonist mode, the compounds were serially diluted and 50 μL of the compound was added per well. 50 μL of the cells were added to each well and incubated for 48 hours. […] The plates were then assayed using SteadyGlo and read on the Envision. Percent Stimulation and Inhibition were determined and analyzed using GraphPad Prism.

AR T877A = molecular target: T2, AR T877A (Homo sapiens, UniProt P10275, T878A); experiment: Luciferase transcriptional reporter assay, mutant AR, HepG2, antagonist mode; settings: HepG2, 90 pM R1881, 48 hours; * denotes incomplete inhibition (otherwise 100%); read-out: Antagonism; IC50, AR construct T877A
T2 construct: expressed in transfected cells; host or cells: HepG2
Description: (§1) HepG2 cells were maintained in EMEM supplemented with 10% FBS. One day before transfection, the media was changed to EMEM with 10% CSS. T-150 flasks were transiently transfected using 120 μL Lipofectamine 2000 (Life Technologies), 30 μg mutant cDNA (expression vector)—mutant cDNA tested were L701H, T877A, W741C and H874Y—and 40 μg 4×ARE-Luciferase (reporter vector) in OptiMEM and the flasks were incubated overnight. Cells were then trypsinized, counted and resuspended at 500,000 cells/mL. For agonist mode, the compounds of Formula (I) are serially diluted and 50 μL of the compound added per well. 50 μL of the cells are added to each well and incubated for 48 hours. For antagonist mode, a final concentration of 90 pM R1881 was added to the diluted compounds and incubated for 48 hours. The plates were then assayed using SteadyGlo and read on the Envision. Percent Stimulation and Inhibition is determined and analyzed using GraphPad Prism.
(§2) The antagonistic (IC50) values for each of the AR cDNA used in the reporter assays are summarized. NT is not tested * denotes incomplete inhibition (otherwise 100%). All values are calculated relative to the activity of R1881 induced androgen receptor activity (n≧3).

AR W741C = molecular target: T3, AR W741C (Homo sapiens, UniProt P10275, W742C); experiment: as above; settings: HepG2, 90 pM R1881, 48 hours; * denotes incomplete inhibition (otherwise 100%); read-out: Antagonism; IC50, AR construct W741C
T3 construct: expressed in transfected cells; host or cells: HepG2
Description: as §1, §2

AR H874Y = molecular target: T4, AR H874Y (Homo sapiens, UniProt P10275, H875Y); experiment: as above; settings: HepG2, 90 pM R1881, 48 hours; * denotes incomplete inhibition (otherwise 100%); read-out: Antagonism; IC50, AR construct H874Y
T4 construct: expressed in transfected cells; host or cells: HepG2
Description: as §1, §2

AR L701H = molecular target: T5, AR L701H (Homo sapiens, UniProt P10275, L702H); experiment: as above; settings: HepG2, 90 pM R1881, 48 hours; * denotes incomplete inhibition (otherwise 100%); read-out: Antagonism; IC50, AR construct L701H
T5 construct: expressed in transfected cells; host or cells: HepG2
Description: as §1, §2

EC50 ([1]; agonist mode, −Log10(EC50 [Molar]), read-out: LNCaP-AR-wt AG pEC50 (converted)) [µM] | IC50 ([2]; antagonist mode, 400 pM R-1881 challenge, −Log10(IC50 [Molar]), read-out: LNCaP-AR-wt ANT pIC50 (converted)) [µM] | IC50 (AR T877A) [µM] | IC50 (AR W741C) [µM] | IC50 (AR H874Y) [µM] | IC50 (AR L701H) [µM] | IC50 (AR-VP16; HepG2, antagonist mode, 90 pM R1881, 48 hours, read-out: IC50 VP16 WT) [µM] | SMILES | EC50 [1] [µM] | Emax [1] [%] | IC50 [2] [µM] | Emax [2] [%] | IC50 (AR-VP16) [µM]
 |  |  |  |  |  |  | N#Cc1ncc(N2C(=O)C3(CCC3)N(c3ccc(N4CCNCC4)cc3)C2=S)cc1C(F)(F)F [Cpd 8, 5-[5-oxo-8-(4-piperazin-1-ylphenyl)-7-thioxo-6,8-diazaspiro[3.4]octan-6-yl]-3-(trifluoromethyl)pyridine-2-carbonitrile] | > 15.1 | 0.2 | 2.69 | 98.8 | 0.121
 |  |  |  |  |  |  | N#Cc1ncc(N2C(=O)C3(CCC3)N(c3ccc(O)cc3)C2=S)cc1C(F)(F)F [Cpd 77, 5-[8-(4-hydroxyphenyl)-5-oxo-7-thioxo-6,8-diazaspiro[3.4]octan-6-yl]-3-(trifluoromethyl)pyridine-2-carbonitrile] | > 15.1 | 0.8 | 0.204 | 99.5 | 
> 15.1 | 0.186 | 11.2 | 14 | 9.48 | 8.86 | 0.96 | CN1CCC(Oc2ccc(N3C(=S)N(c4cnc(C#N)c(C(F)(F)F)c4)C(=O)C34CCC4)cc2)CC1 [Cpd 85, 5-[8-[4-[(1-methyl-4-piperidyl)oxy]phenyl]-5-oxo-7-thioxo-6,8-diazaspiro[3.4]octan-6-yl]-3-(trifluoromethyl)pyridine-2-carbonitrile] |  |  |  |  | 

Reference: patent US20180008587A1, “THIOHYDANTOIN ANDROGEN RECEPTOR ANTAGONISTS FOR THE TREATMENT OF CANCER” (Jaressen Pharmaceutica NV, priority 2016, published 2018)
